## Antibody variant affinities, Ab-95 light chain, assay 2

From the AlphaSeq antibody data of Engelhart et al. 2022 (doi:10.1038/s41597-022-01779-4), copy in the FLAb collection.

Binding partner: SARS-CoV-2 spike HR2 peptide, sequence PDVDLGDISGINAS.

Ab-95 is the parent antibody, in scFv form: VH, then a (GGGGS)3 linker, then VL. The heavy chain is unchanged in all variants.
VH: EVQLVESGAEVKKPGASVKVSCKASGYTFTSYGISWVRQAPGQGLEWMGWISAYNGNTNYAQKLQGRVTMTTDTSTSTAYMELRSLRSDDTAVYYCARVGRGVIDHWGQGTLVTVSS
VL: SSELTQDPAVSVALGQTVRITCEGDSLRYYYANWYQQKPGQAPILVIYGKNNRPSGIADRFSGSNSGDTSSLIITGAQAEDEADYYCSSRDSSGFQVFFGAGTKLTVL

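Variants in AAYL52 differ from the parent at up to three CDR positions; double and triple changes were sampled at random. Affinity was read by AlphaSeq, a pooled yeast mating assay with surface-displayed partners. Binding brings cells together so that they mate, and sequencing counts the barcode pairs among the diploids. The ratio of observed to expected reads was calibrated, replicate by replicate, on BCL2-family standards whose Kd was known from biolayer interferometry. There are three technical replicates.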

Sequences are complete VL domains. Numbers give log10(Kd / nM), so 0 is 1 nM and 3 is 1 µM. Smaller is tighter. Where no diploid with the target was found in that replicate, the entry reads "ND": below detection, most likely a poor binder, though not proof of it. As a blank, each scFv also met three strains without target: over library AAYL52, 28% of these pairings were detected, typically at 3.91 and seldom below 2.90. Also given: how often the same scFv was detected with the empty control strains, with their mean in brackets.

VL,"log10 Kd, replicates",empty controls
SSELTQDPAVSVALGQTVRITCEGGSLRYYYANWYQQKPGQAPILVIYGKNNRPSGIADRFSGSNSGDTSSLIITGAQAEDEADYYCSSRDSSGFQVFFGAGTKLTVL,2.39 2.11 1.76,3 of 9 (3.88)
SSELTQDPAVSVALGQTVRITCEGNSWRYYYANWYQQKPGQAPILVIYQKNNRPSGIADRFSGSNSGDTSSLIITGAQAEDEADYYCSSRDSSGFQVFFGAGTKLTVL,ND ND ND,1 of 9 (3.95)
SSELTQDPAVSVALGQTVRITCEGDSLRKYYAYWYQQKPGQAPILVIYGKNARPSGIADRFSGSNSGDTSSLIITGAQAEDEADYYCSSRDSSGFQVFFGAGTKLTVL,4.46 ND ND,4 of 9 (3.95)
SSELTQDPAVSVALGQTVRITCEGDSLRYYEANWYQQKPGQAPILVIYGKNNRPSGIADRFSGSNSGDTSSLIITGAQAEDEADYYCSSRDSYGFQTFFGAGTKLTVL,2.88 2.74 ND,2 of 9 (5.00)
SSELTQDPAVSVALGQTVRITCEGYSLRYYYANWYQQKPGQAPILVIYGKNNRPSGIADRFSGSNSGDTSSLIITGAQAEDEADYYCSFRDSSGFQYFFGAGTKLTVL,2.31 2.30 1.67,1 of 9 (5.40)
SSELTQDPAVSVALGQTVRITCEGDSLRYYEANWYQQKPGQAPILVIYGKNNRPSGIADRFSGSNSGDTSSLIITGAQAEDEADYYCSSRDSVGFGVFFGAGTKLTVL,2.12 2.82 2.25,3 of 9 (3.64)
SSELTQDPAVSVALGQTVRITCEGDSLRYYYANWYQQKPGQAPILVIYGKNNRFSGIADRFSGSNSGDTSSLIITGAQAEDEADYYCSSRDSFGFQTFFGAGTKLTVL,ND ND ND,2 of 9 (3.57)
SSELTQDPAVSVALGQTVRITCEGDSARYYYANWYQQKPGQAPILVIYGKNNRPSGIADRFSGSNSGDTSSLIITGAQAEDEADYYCSFRDSTGFQVFFGAGTKLTVL,3.91 ND 3.80,1 of 9 (3.26)
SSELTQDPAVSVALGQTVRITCEGFSWRYYYANWYQQKPGQAPILVIYGKNLRPSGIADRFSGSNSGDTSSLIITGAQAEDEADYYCSSRDSSGFQVFFGAGTKLTVL,ND 5.10 ND,0 of 9
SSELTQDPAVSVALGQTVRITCEGDSFRYYYANWYQQKPGQAPILVIYGKNNRPSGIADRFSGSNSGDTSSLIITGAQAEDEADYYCSSRYSSGFQVTFGAGTKLTVL,2.60 4.24 4.10,2 of 9 (4.16)
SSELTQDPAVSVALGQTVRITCRGDSLRYYYATWYQQKPGQAPILVIYGKNNRPEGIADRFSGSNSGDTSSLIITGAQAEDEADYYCSSRDSSGFQVFFGAGTKLTVL,2.75 2.54 ND,2 of 9 (3.43)
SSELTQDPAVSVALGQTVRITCEGDSLRYYYANWYQQKPGQAPILVIYGKNNRPSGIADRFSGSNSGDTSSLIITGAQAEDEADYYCSSRDSFGFQVFFGAGTKLTVL,3.15 2.74 2.96,6 of 9 (4.10)
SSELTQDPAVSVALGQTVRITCEGDSLRYMYAYWYQQKPGQAPILVIYGKNNRPSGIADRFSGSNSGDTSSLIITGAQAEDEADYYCSSRDSSGFQLFFGAGTKLTVL,ND 3.74 ND,5 of 9 (4.09)
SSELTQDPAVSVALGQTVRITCEGDSLRYYYAQWYQQKPGQAPILVIYGKNNRPYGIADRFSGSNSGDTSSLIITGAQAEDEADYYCKSRDSSGFQVFFGAGTKLTVL,ND ND 4.46,2 of 9 (4.07)
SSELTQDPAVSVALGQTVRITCEADSLRAYYANWYQQKPGQAPILVIYGKNNRPSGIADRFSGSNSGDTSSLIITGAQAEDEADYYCSSRDSSGFQVPFGAGTKLTVL,ND ND ND,0 of 9
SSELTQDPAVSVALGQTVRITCQGDSDRYYYANWYQQKPGQAPILVIYGKNNRPRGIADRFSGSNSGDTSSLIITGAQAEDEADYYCSSRDSSGFQVFFGAGTKLTVL,2.63 ND ND,3 of 9 (3.88)
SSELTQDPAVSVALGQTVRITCEGDSLRYYYLNWYQQKPGQAPILVIYGKNNRPSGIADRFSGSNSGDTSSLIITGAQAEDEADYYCSNRDSSGFDVFFGAGTKLTVL,ND ND ND,1 of 9 (3.23)
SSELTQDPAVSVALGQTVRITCEGDSLRYYYANWYQQKPGQAPILVIYGFGNRPSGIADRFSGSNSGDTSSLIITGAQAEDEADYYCSSRWSSGFQVFFGAGTKLTVL,3.66 ND 4.19,1 of 9 (3.67)
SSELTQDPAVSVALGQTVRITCEGDSLRYYYANWYQQKPGQAPILVIYGKNNRPSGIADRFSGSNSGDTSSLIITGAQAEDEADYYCSSLDSSKFQVFFGAGTKLTVL,2.60 2.63 1.45,2 of 9 (3.99)
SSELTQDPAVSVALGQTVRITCEGISLRYYYANWYQQKPGQAPILVIYGKNNRPSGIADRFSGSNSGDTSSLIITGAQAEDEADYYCSLRDSSGFQVFFGAGTKLTVL,2.66 2.47 2.03,3 of 9 (4.30)
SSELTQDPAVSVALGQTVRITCEGDSLRYYYWNWYQQKPGQAPILVIYGKNNMPSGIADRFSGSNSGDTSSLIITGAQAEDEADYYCSSRDSRGFQVFFGAGTKLTVL,3.16 3.48 ND,3 of 9 (4.80)
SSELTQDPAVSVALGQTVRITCEGCSLRYYYANWYQQKPGQAPILVIYGKNMRPSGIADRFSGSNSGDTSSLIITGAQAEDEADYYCSSRDSSGFQVFFGAGTKLTVL,3.74 2.78 ND,2 of 9 (3.38)
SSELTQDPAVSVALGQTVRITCEGDSLRYYYANWYQQKPGQAPILVIYGKGNRPSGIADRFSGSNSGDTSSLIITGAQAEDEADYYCSSRDSAGFQVFFGAGTKLTVL,2.65 2.50 1.87,4 of 9 (4.21)

Excerpt, the first 3 entries:

VL	log10 Kd, replicates	empty controls
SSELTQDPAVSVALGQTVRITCEGGSLRYYYANWYQQKPGQAPILVIYGKNNRPSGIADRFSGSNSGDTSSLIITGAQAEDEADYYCSSRDSSGFQVFFGAGTKLTVL	2.39 2.11 1.76	3 of 9 (3.88)
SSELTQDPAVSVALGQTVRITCEGNSWRYYYANWYQQKPGQAPILVIYQKNNRPSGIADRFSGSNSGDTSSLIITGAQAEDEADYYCSSRDSSGFQVFFGAGTKLTVL	ND ND ND	1 of 9 (3.95)
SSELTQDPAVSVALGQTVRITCEGDSLRKYYAYWYQQKPGQAPILVIYGKNARPSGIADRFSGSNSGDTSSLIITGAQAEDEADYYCSSRDSSGFQVFFGAGTKLTVL	4.46 ND ND	4 of 9 (3.95)